Measured values taken from ChEMBL document CHEMBL4138220, “A fluorine scan of a tubulin polymerization inhibitor isocombretastatin A-4: Design, synthesis, molecular modelling, and biological evaluation” (Eur J Med Chem, 2018).

Species: Ovis aries
Experiment: Potency index, ratio of combretastatin A-4 IC50 to compound IC50 for inhibition of sheep brain tubulin polymerization

Ratio IC50: 5
SMILES: C=C(c1ccc(OC(F)F)c(N)c1)c1cc(OC)c(OC)c(OC)c1
